In general, IC50 refers to the midpoint of a concentration-inhibition curve. Low values mean greater potency in that assay, high ones weaker potency in that assay.

Chains of the proteins cited; added tags and fusions are not shown.
UniProt Q07820, whole entry, looked up: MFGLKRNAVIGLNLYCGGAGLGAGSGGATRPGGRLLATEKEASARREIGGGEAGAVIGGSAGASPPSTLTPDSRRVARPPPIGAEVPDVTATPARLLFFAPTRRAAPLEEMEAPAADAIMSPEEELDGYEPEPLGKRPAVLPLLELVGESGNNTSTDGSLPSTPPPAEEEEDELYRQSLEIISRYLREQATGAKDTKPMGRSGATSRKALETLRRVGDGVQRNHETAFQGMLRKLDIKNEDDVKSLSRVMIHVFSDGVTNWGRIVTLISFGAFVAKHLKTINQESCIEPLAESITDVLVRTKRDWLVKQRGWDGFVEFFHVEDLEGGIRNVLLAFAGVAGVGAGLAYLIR

The target of the experiment is Mcl-1 (Homo sapiens, UniProt Q07820). The experiment in a line: IC50%(nM).

With RPEIWMTQGLRRLGDEINAYYAR [MS1], the IC50 was approximately 2200 nM.

The values above are taken from patent US11142554B2 (MASSACHUSETTS INSTITUTE OF TECHNOLOGY, priority 2015, dated 2021).
